The results in this text go back to patent US10174011B2, “Heterocyclic compounds, process for preparation of the same and use thereof” (SHANGHAI INSTITUTE OF MATERIA MEDICA, CHINESE ACADEMY OF …, priority 2014, dated 2019).

Protein sequences, listed by entry. Tags and fused reporters are not part of them.
UniProt P14416, whole entry: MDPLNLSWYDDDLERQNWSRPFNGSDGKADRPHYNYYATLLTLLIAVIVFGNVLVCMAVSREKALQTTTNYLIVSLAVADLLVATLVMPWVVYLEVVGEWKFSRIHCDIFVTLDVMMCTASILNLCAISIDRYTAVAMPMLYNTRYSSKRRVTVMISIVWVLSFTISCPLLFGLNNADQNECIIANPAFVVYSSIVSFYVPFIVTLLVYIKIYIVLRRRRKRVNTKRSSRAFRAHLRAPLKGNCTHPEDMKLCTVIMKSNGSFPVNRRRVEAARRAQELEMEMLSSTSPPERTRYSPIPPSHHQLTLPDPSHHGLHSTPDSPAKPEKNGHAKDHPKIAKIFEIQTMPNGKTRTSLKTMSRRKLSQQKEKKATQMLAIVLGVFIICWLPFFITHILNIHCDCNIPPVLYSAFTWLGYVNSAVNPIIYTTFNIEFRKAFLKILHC

This test addresses human recombinant D2 receptor (Homo sapiens (Human), UniProt P14416). The experiment in a line: D2 receptor antagonism activity test (inhibition of dopamine-induced decrease of cAMP production, LANCE cAMP 384 Kit). Conditions: read-out: D2 receptor antagonism (IC50, mol/L), HEK293 cells expressing human recombinant D2 receptor, 0.1 nM-10000 nM.

Structures are written as SMILES.

Regarding `O=c1ccc2ccc(CCCCCN3CCN(c4cccc5sccc45)CC3)cc2[nH]1` [Compound of example 11, 7-(5-(4-(benzo[b]thiophen-4-yl)piperazin-1-yl)pentyl)quinolin-2(1H)-one], the IC50 was found to be 10.2 nM.
